Where two headings read alike, the source gives them in different places.
Assays:
human Nav1.7 [1] = biological target: T1, human Nav1.7 (Homo sapiens, UniProt Q15858, W1161R); format: cell-based
human Nav1.7 [2] = biological target: T1, human Nav1.7; format: cell-based; settings: read-out: hNav1.7 QPatch IC50

Amino acid sequences for entries named in this document (tags omitted). Residues count along the entry.
UniProt Q15858, 1-1977 isoform Q15858-3 W1150R: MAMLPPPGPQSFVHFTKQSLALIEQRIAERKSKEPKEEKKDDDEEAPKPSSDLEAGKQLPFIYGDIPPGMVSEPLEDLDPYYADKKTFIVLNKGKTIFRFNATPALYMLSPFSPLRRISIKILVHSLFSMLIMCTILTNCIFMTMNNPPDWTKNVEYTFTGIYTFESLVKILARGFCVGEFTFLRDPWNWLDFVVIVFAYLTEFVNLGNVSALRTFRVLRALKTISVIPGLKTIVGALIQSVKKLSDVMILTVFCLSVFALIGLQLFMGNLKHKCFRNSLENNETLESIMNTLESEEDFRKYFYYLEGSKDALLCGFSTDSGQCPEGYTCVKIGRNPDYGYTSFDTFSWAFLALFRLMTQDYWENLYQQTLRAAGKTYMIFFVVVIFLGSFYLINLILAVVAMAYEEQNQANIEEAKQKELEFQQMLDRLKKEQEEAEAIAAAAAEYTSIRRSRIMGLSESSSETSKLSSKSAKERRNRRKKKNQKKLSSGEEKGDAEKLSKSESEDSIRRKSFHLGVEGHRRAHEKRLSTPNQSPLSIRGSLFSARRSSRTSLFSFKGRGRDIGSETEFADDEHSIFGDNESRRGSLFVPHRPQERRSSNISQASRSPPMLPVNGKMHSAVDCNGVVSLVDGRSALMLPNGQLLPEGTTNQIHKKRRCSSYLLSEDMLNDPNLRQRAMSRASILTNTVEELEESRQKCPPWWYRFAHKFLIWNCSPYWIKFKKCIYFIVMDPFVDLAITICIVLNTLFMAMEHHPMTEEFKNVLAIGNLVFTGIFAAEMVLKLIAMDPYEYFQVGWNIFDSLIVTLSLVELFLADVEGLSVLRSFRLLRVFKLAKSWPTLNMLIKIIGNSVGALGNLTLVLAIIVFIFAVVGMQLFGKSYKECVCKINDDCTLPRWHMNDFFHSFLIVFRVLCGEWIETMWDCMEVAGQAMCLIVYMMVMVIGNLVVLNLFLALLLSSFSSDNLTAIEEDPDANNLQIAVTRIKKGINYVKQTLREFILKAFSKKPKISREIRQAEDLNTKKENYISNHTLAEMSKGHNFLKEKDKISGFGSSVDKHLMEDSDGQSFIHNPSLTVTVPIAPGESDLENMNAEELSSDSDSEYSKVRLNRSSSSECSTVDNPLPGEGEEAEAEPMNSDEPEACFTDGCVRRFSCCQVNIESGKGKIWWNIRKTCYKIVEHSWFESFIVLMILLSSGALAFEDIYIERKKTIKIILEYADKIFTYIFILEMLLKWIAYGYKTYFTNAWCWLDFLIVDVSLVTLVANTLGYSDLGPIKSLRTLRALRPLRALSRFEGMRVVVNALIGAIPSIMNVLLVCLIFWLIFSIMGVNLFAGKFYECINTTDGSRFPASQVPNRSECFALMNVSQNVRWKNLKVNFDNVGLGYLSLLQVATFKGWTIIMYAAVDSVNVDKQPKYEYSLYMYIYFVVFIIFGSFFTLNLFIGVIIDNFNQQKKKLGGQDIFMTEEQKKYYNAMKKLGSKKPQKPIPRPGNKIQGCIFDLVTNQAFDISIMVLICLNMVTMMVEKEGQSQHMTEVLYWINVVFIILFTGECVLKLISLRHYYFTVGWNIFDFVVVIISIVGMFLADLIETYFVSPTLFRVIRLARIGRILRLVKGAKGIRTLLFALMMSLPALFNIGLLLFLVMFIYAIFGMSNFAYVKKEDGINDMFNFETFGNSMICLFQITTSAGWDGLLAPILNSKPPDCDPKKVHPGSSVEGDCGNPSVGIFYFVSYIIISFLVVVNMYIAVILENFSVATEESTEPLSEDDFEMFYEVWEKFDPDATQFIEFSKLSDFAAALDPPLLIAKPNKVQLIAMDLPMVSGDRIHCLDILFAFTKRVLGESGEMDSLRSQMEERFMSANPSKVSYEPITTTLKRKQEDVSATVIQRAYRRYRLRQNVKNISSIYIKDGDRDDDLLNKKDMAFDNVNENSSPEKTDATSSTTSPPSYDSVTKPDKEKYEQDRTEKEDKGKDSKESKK

Substance | IC50 (human Nav1.7 [1]; read-out: Nav1.7 IC50) [nM] | IC50 (human Nav1.7 [1]; read-out: hNav1.7 TETRA IC50) [nM] | IC50 (human Nav1.7 [2]) [nM]
GPACQKWMWTCDAERKCCEGMVCRLWCKKKLW-COOH [NV1D2674] | 4.03 | 4 ± 0.2 | –
GPQCQDWMQTCDRERKCCKGFVCTLWCRKKLW-COOH [NV1D3430] | 93.9 | – | –
GPQCQKWMQTCDRERKCCEGFVCTLWCRKTLW-COOH [NV1D3409] | 79.1 | – | –
GPQCQKWMQTCDRERKCCERFVCTLWCRKKLW-COOH [NV1D3390] | 108 | – | –
GPQCQKWMWTCDAERKCCEGFVCRLWCKKKLW-COOH [NV1D2740] | 3.62 | 3.6 ± 9.9 | –
GPQCQKWMWTCDAERKCCEGMVCRLWCKKKLW-COOH [NV1D2675] | 4.33 | 4.3 ± 0.3 | –
GPRCQKWMQTCDSERKCCEGFVCRLWCKKKLW-COOH [NV1D2733] | 7.54 | 7.5 ± 2.9 | –
GPRCQKWMWTCDSERKCCEGFVCRLWCKKKLW-COOH [NV1D2662] | 4.03 | 4 ± 0.4 | –
GPSCQKWMWTCDAERKCCEGFVCRLWCKKKLW-COOH [NV1D2738] | – | 2.6 ± 0.2 | –
GPSCQKWMWTCDAERKCCEGMVCRLWCKKKLW-COOH [NV1D2673] | 4.31 | 4.3 ± 0.5 | –
GPSCQKWMWTCDSERKCCEGFVCRLWCKKKLW-COOH [NV1D2663] | 4.19 | 4.2 ± 0.4 | –
GPYCQKWMWTCDSERKCCEGMVCRLWCKKKLW-COOH [NV1D12, reference compound] | – | 4.1 ± 3.6 | 2.2 ± 1.3
